For one molecule, Ki results are on record in BindingDB's records for doi:10.1016/s0024-3205(97)00885-0 (Eli Lilly, 1997).

The chains behind the UniProt entries cited, without tags or fusion partners. Where a name states a change or a piece, a line headed by the entry shows the natural chain unless it says otherwise.
UniProt P28566: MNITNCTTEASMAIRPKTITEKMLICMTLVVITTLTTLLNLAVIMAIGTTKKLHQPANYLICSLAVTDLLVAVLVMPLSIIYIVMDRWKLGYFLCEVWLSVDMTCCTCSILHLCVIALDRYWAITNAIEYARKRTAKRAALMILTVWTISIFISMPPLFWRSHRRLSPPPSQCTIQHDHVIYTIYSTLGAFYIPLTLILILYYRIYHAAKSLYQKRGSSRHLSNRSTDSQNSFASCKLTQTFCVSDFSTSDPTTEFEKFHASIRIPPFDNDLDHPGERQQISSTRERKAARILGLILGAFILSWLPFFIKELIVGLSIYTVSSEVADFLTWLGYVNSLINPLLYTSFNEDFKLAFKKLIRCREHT
UniProt P28222, whole entry: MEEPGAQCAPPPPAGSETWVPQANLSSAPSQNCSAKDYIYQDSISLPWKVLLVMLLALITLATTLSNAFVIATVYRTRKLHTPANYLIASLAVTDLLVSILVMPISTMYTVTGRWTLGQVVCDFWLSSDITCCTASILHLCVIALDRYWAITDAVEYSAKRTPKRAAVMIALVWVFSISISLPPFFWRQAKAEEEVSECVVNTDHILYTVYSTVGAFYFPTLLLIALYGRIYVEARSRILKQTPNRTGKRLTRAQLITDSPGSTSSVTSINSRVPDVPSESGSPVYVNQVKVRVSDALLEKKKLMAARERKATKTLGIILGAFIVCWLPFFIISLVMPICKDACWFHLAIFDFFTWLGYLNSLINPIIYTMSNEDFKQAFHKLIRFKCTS

Experiment [1] concerns the target 5-hydroxytryptamine receptor 1E (Homo sapiens, UniProt P28566).
Experiment [2] deals with 5-hydroxytryptamine receptor 1B (Homo sapiens, UniProt P28222).

In general, Ki refers to the dissociation constant of the complex between target and ligand, obtained from inhibition or displacement. Lower therefore signals a stronger hold on the target. In the case of `CN(C)C1CCc2[nH]c3ccc(NC(=O)c4ccc(F)cc4)cc3c2C1` (configuration not stated) [NSC_5311097], the inhibition constant Ki in experiment [1] turned out to be 1.41 µM; in experiment [2] it was 0.549 µM.
